Assay results reported in patent US20260382585A1, “GLUCAGON-LIKE PEPTIDE 1 RECEPTOR AGONISTS” (published 2026).

Chains of the proteins cited; added tags and fusions are not shown. Residues count along the entry.
UniProt P43220, 24-463 limits assumed: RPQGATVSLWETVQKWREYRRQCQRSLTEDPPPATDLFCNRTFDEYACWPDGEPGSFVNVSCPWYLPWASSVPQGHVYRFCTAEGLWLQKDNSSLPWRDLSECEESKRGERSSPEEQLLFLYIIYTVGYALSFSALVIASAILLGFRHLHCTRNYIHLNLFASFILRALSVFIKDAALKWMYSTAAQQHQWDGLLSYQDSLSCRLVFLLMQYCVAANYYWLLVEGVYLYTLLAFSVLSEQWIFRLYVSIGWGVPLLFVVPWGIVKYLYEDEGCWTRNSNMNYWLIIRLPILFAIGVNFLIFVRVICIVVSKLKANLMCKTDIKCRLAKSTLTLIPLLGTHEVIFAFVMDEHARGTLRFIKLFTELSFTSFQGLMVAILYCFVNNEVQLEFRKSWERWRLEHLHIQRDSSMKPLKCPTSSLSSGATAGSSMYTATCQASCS

Tests used:
human GLP-1R [1] = target: T1, human GLP-1R (Homo sapiens, UniProt P43220); assay: Human GLP-1 Receptor HEK293 Cell cAMP Assay, 581 fmol/mg expression density; conditions: HEK293 cell line, 581 fmol/mg GLP-1R, value (SEM, n); for % Stim Max: relative to maximal response of human GLP-1(7-36)NH2; for EC50: read-out: relative EC50, intracellular cAMP response, 30 min at 37 °C
human GLP-1R [2] = target: T1, human GLP-1R; assay: Human GLP-1 Receptor HEK293 Cell cAMP Assay, 104 fmol/mg expression density; conditions: for Emax / % Stim Max / EC50: HEK293 cell line, 104 fmol/mg GLP-1R; for Emax: fitted top of curve relative to maximal response to GLP-1(7-36)NH2, arithmetic mean ± SEM; for % Stim Max: point of maximal stimulation relative to maximal response of GLP-1(7-36)NH2, arithmetic mean (SEM, n); for EC50: read-out: relative EC50, intracellular cAMP response, 30 min at 37 °C, geometric mean (SEM, n); for potency compared with native GLP-1(7-36)NH2 peptide: 104 fmol/mg assay
[3] = test system: mice expressing human GLP-1R; assay: In vivo Intraperitoneal Glucose Tolerance Test in Human GLP-1R Knock-In Mice

SMILES | % Stim Max (human GLP-1R [1]) | EC50 (human GLP-1R [1]) [nM] | Emax (human GLP-1R [2]) [%] | % Stim Max (human GLP-1R [2]) | EC50 (human GLP-1R [2]) [nM] | potency compared with native GLP-1(7-36)NH2 peptide (human GLP-1R [2]) | oral availability and potency as GLP-1R agonist in mice ([3]; human GLP-1R knock-in mice, IPGTT) | Blood glucose lowering ED50 ([3]; oral, overnight fasted mice, glucose 2 g/kg i.p. one hour post-dose, AUC of blood glucose over two hours, 95% confidence interval) [µg/kg]
COc1cc(C(=O)O)cc2c1nc(Cc1cc(F)c(-c3cccc(OCc4ccc(C#N)nc4C)n3)cc1F)n2C[C@@H]1CCO1 | 121 (4.77, n = 4) % | 3.18 | 70 ± 5 | 87.9 (3.76, n = 4) % | 10.6 |  |  | 
COc1cc(C(=O)O)cc2c1nc(Cc1cc(F)c(-c3cccc(OCc4cnn(C)n4)n3)cc1F)n2C[C@@H]1CCO1 | 126 (4.66, n = 3) % | 37.5 | 71 ± 3 | 84.3 (2.62, n = 3) % | 147 |  |  | 
COc1cc(C(=O)O)cc2c1nc(Cc1cc(F)c(-c3cccc(OCc4ccn(C)n4)n3)cc1F)n2C[C@@H]1CCO1 | 118 (4.46, n = 4) % | 25.7 | 72 ± 3 | 81.9 (2.95, n = 4) % | 125 |  |  | 
COc1cc(C(=O)O)cc2c1nc(Cc1cc(F)c(-c3cccc(OCc4ccc(C(N)=O)nc4C)n3)cc1F)n2C[C@@H]1CCO1 | 104 (6.13, n = 4) % | 35.2 | 66 ± 3 | 77.4 (4.52, n = 4) % | 131 |  |  | 
COc1cc(C(=O)O)cc2c1nc(Cc1cc(F)c(-c3cccc(OCc4ccon4)n3)cc1F)n2C[C@@H]1CCO1 | 110 (2.04, n = 4) % | 52.4 | 68 ± 2 | 76 (1.83, n = 4) % | 220 |  |  | 
COCCOc1cc(C(=O)O)cc2c1nc(Cc1cc(F)c(-c3cccc(OCc4ccc(=O)n(C)c4)n3)cc1F)n2C[C@@H]1CCO1 | 105 (4.63, n = 4) % | 113 | 70 ± 5 | 74.7 (5.06, n = 4) % | 495 |  |  | 

Molecules with a lower EC50 (human GLP-1R [2]), results first:

% Stim Max (human GLP-1R [1]) | EC50 (human GLP-1R [1]) [nM] | Emax (human GLP-1R [2]) [%] | % Stim Max (human GLP-1R [2]) | EC50 (human GLP-1R [2]) [nM] | potency compared with native GLP-1(7-36)NH2 peptide (human GLP-1R [2]) | SMILES | oral availability and potency as GLP-1R agonist in mice ([3]; human GLP-1R knock-in mice, IPGTT) | Blood glucose lowering ED50 ([3]; oral, overnight fasted mice, glucose 2 g/kg i.p. one hour post-dose, AUC of blood glucose over two hours, 95% confidence interval) [µg/kg]
123 (2.13, n = 4) % | 2.16 | 80 ± 1 | 89.2 (2.36, n = 4) % | 6.96 |  | COc1cc(C(=O)O)cc2c1nc(Cc1cc(F)c(-c3cccc(OCc4ccc(C#N)cn4)n3)cc1F)n2C[C@@H]1CCO1 |  | 
118 (2.96, n = 5) % | 1.91 | 81 ± 3 | 87.5 (1.54, n = 5) % | 4.45 |  | COc1cc(C(=O)O)cc2c1nc(Cc1cc(F)c(-c3cccc(OCc4ccc(C#N)nc4)n3)cc1F)n2C[C@@H]1CCO1 |  | 
116 (3.39, n = 3) % | 0.785 | 68 ± 2 | 75.6 (1.62, n = 4) % | 3.37 |  | COc1cc(C(=O)O)cc2c1nc(Cc1cc(F)c(-c3cccc(OCc4ccc(C#N)s4)n3)cc1F)n2C[C@@H]1CCO1 |  | 
117 (3.04, n = 3) % |  | 75 ± 4 | 84.4 (5.15, n = 5) % | 1.44 |  | COc1cc(C(=O)O)cc2c1nc(Cc1cc(F)c(-c3cccc(OCc4ccc(-n5cncn5)cc4)n3)cc1F)n2C[C@@H]1CCO1 |  | 
117 (6.8, n = 3) % |  | 75 ± 3 | 82.9 (3.52, n = 5) % | 1.37 |  | COc1cc(C(=O)O)cc2c1nc(Cc1cc(F)c(-c3cccc(OCc4ccc(C#N)cc4C)n3)cc1F)n2C[C@@H]1CCO1 |  | 
123 (3.72, n = 4) % |  | 79 ± 3 | 91.6 (6.35, n = 4) % | 0.724 | comparable potency | COCCOc1cc(C(=O)O)cc2c1nc(Cc1cc(F)c(-c3cccc(OCc4ccc(C#N)cc4F)n3)cc1F)n2C[C@@H]1CCO1 |  | 
120 (3.39, n = 5) % |  | 80 ± 2 | 90.9 (2.98, n = 5) % | 0.682 | comparable potency | COc1cc(C(=O)O)cc2c1nc(Cc1cc(F)c(-c3cccc(OCc4ccc(C#N)cc4F)n3)cc1F)n2C[C@@H]1CCO1 |  | 
125 (3.95, n = 4) % |  | 74 ± 3 | 82.7 (3.85, n = 4) % | 0.499 | comparable potency | COc1cc(C(=O)O)cc2c1nc(Cc1cc(C)c(-c3cccc(OCc4ccc(C#N)cc4F)n3)cc1F)n2C[C@@H]1CCO1 | orally available potent GLP-1R agonist in mice | 8
125 (5.29, n = 5) % |  | 78 ± 4 | 87.6 (3.51, n = 6) % | 0.48 | comparable potency | COc1cc(C#N)ccc1COc1cccc(-c2cc(F)c(Cc3nc4c(OC)cc(C(=O)O)cc4n3C[C@@H]3CCO3)cc2F)n1 |  | 
